Holding throughout (assay type): cell-based
Experiment [1] relates to human breast cancer cell HCC1806. Briefly: Proliferation of HCC1806 cells, MTT assay. The conditions noted are these: HCC1806, 72 h, 3 days treatment, read-out: IC50 (inhibition of proliferation of HCC1806). The method, then:
Newly revived HCC1806 cells (purchased from Guangzhou Genio) were cultured and passaged for at least three generations before use. Cells were used at 90% confluency for experiments. Cells were digested with trypsinase and centrifuged at 800 rpm for 5 minutes. The cell pellets were resuspended in fresh RPMI1640 medium and cells were counted. Cells were seeded on 96-well cell culture plates at 2000 cells/well and incubated overnight at 37° C., 5% CO2. The stock solutions of the test substances (including the test compounds and the reference compound) were serially diluted to 8 concentrations with DMSO at a ratio of 1:3. Five μL of each of the serially diluted solutions were added to 120 μL of medium (diluted by 25 times) and mixed by shaking. The medium of cells cultured overnight was replaced by 195 μL/well of fresh medium and 5 μL/well of diluted medium containing test compounds. The cell culture plates were returned to incubator at 37° C., 5% CO2 for 3 days. At the end of treatment the cell viability was determined by MTT colorimetric assay. […] Medium was then discarded and 100 μL/well of DMSO was added, the plates were shaken for 10 minutes in darkness and the absorbances were measured at the wavelengths of 552/690 nm in a multi-function reader.
(§1) Data was analyzed by GraphPad Prism 6.0. […]
A general note: Tetrazolium dyes change colour on reduction, which living cells bring about.

Experiment [2] concerns human pancreatic cancer cell SW1990. Nature of the experiment: Proliferation of SW1990 cells, MTT assay. Conditions: SW1990, 120 h, 5 days treatment, read-out: IC50 (inhibition of proliferation of SW1990). The method, then: Newly revived SW1990 cells (purchased from Shanghai Fuheng Biology) were cultured and passaged for at least three generations before use. Cells were used at about 90% confluency for experiments. Cells were digested with trypsinase and centrifuged at 800 rpm for 5 minutes. The cell pellets were resuspended in fresh DMEM medium and cells were counted. Cells were seeded on 96-well cell culture plates at 5000 cells/well and incubated overnight at 37° C., 5% CO2. The stock solutions of the test substances (including the test compounds and the reference compound) were serially diluted to 8 concentrations with DMSO at a ratio of 1:3. 5 μL of each serially diluted solutions was added to 120 μL of medium (diluted by 25 times) and mixed by shaking. The medium of cells cultured overnight was replaced by 195 μL/well of fresh medium and 5 μL/well of diluted medium containing test compounds. The cell culture plates were returned to incubator at 37° C. and 5% CO2 for 5 days. At the end of the treatment the cell viability was determined by MTT colorimetric assay. […] The plates were shaken for 10 minutes in darkness and the absorbances were measured at wavelengths of 552/690 nm in a multi-function reader.
as §1

The test system of experiment [3] is human colon cancer cell LoVo. Nature of the experiment: Proliferation of LoVo cells, MTT assay. Conditions: 96 h, 4 days treatment, read-out: IC50 (inhibition of proliferation of LoVo). The method, then: Newly revived LoVo cells (purchased from Shanghai Cell Institute) were cultured and passaged for at least three generations before use. Cells were used at 90% confluence for experiment. Cells were digested with trypsinase and centrifuged at 800 rpm for 5 minutes and the supernatant was discarded. The cell pellets were resuspended in fresh RPMI1640 medium and counted. Cells were seeded on 96-well cell culture plates at 5000 cells/well and incubated overnight at 37° C., 5% CO2. The stock solutions of the test substances (including the test compounds and the reference compound) were serially diluted to 8 concentrations with DMSO at a ratio of 1:3. 5 μL of each series diluted solutions was added to 120 μL of medium (diluted by 25 times) and mixed by shaking. The medium of the cells cultured overnight was replaced by 195 μL/well of fresh medium and 5 μL/well of diluted medium containing test compound. The cell culture plates were returned to incubator at 37° C. and 5% CO2 for 4 days. At the end of treatment, the cell viability was determined by MTT colorimetric assay. […] The plates were shaken for 10 minutes in darkness and the absorbance was measured at wavelengths of 552/690 nm in a multi-function reader.
as §1

Consider `COc1cccc(OCCCN)c1-c1cc(Nc2cnc(C#N)cn2)n[nH]1` [LY2606368, reference compound], for which the IC50 is 3.5 nM in experiment [1], 3.3 nM in experiment [2] and 5.56 nM in experiment [3].

The values above are taken from patent US12492197B2, “3,5-disubstituted pyrazole compounds as kinase inhibitors and uses thereof” (IMPACT THERAPEUTICS (SHANGHAI), INC, priority 2019, dated 2025).
